# Measured values taken from PubChem BioAssay AID743050 (The Scripps Research Institute Molecular Screening Center, 2013).
# Only a part is listed here, and it is no random draw. The source made the active and inactive calls.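 How the source made its calls: active means mean activation over triplicate wells above the hit cutoff derived from the earlier primary screen (cut at about 11% in these data); inactive means the rest.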
# System: DAF-12 nuclear receptor (Heterodera glycines), GAL4-LBD fusion
# Experiment: hgDAF-12 GAL4 fusion reporter activation, retest – cell-based, luminescence, HEK293, GAL4-LBD fusion, confirmation (AID 743050);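 further: 0% = DMSO low control and 100% = 2 mM sodium butyrate high control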
# Conditions: HEK293 GAL4-hgDAF12 luciferase reporter, agonist mode; at 6.8 µM; hits give high values; percent of butyrate response
row,Compound,activation
1,O=P1(N(CCCl)CCCl)Nc2ccccc2N1,active: 10.7%
